Patent US20260382725A1, “LIPID PRODRUGS OF AGOMELATINE” (published 2026)
Read-outs that look alike come from different tables or passages of the source. Marks after values point to notes of the source that are not given here.

Assays:
[1] = In vitro Release of Agomelatine from Prodrugs in human plasma supplemented with lipoprotein lipase (LPL); conditions: for Percentage of Agomelatine in Solution: 40 μM prodrug, human plasma with LPL 200-12,000 units/mL, 37 °C, free agomelatine at 180 min timepoint; for levels of free agomelatine in human plasma supplemented with LPL: 180 min timepoint
[2] = tested on: recombinant human monoacylglyceride lipase (rhMAGL); assay: In Vitro Monoglyceride Stability Evaluation with Monoacylglyceride Lipase; conditions: score −10 (100% monoglyceride loss) to 10 (100% monoglyceride remaining), scores above 10 given as 10; BSA 10 mg/mL, LPL 300 units/mL, rhMAGL 0-0.5 μg/mL, 37 °C, 0-180 minutes
[3] = Lymphatic Transport Assay in Conscious Rats; conditions: for % Dose in Lymph: oral gavage, lymph collected up to 24 hr
[4] = Pharmacokinetic Studies in Non-human Primates (plasma exposure of agomelatine after oral dosing); conditions: for AUC (plasma exposure of agomelatine): 1 mg/kg agomelatine equivalent for the prodrugs (SEDDS)
[5] = tested on: MT1 receptor; conditions: cited from earlier work
[6] = tested on: MT2 receptor; conditions: cited from earlier work
[7] = patients receiving agomelatine, cited from earlier work
[8] = tested on: 5-HT2C; conditions: cited from earlier work
[9] = tested on: cytochrome P450 isoenzymes; conditions: oral; cited from earlier work
[10] = % dose in lymph vs AGM (AGM in oleic acid/Tween 80), prodrug in SEDDS formulation
[11] = formulated in SEDDS formulation (27% Peceol, 48% Cremophor RH40, 25% Sesame Oil)
[12] = % dose in lymph vs AGM, oleic acid/Tween 80 formulation
[13] = formulated in oleic acid/Tween 80 formulation

| SMILES | Percentage of Agomelatine in Solution [1] | Monoacylglyceride Stability [2] | Approximate Fold Change Compared to AGM [3, 10] [fold] | % Dose in Lymph [3, 11] | also measured |
| --- | --- | --- | --- | --- | --- |
| CCCCCCCC(=O)OCC(COC(=O)CCCCCCC)OC(=O)CC(C)(C)CCCCC(=O)OCOC(=O)N(CCc1cccc2ccc(OC)cc12)C(C)=O | A (>25%) | −7 | 400 | 16** % |  |
| CCCCCCCC(=O)OCC(COC(=O)CCCCCCC)OC(=O)CC(C)(C)CCC(=O)OCOC(=O)N(CCc1cccc2ccc(OC)cc12)C(C)=O | A (>25%) | 10 | 300 | 12** % |  |
| CCCCCCCC(=O)OCC(COC(=O)CCCCCCC)OC(=O)CC(C)(C)CC(=O)OCOC(=O)N(CCc1cccc2ccc(OC)cc12)C(C)=O |  |  |  |  | AUC (plasma exposure of agomelatine) ([4]; oral): 0.207 µM·h; Approximate Fold Change Compared to AGM [3, 12]: 1400 fold; % Dose in Lymph [3, 13]: 57* % |
| CCCCCCCC/C=C\CCCCCCCC(=O)OCC(COC(=O)CCCCCCC/C=C\CCCCCCCC)OC(=O)CC1(CC(=O)OCOC(=O)N(CCc2cccc3ccc(OC)cc23)C(C)=O)CC1 | A (>25%) | 6 |  |  | levels of free agomelatine in human plasma supplemented with LPL [1]: high levels of free agomelatine; Approximate Fold Change Compared to AGM [3, 12]: 1800 fold; % Dose in Lymph [3, 13]: 72* % |
| CCCCCCCC(=O)OCC(COC(=O)CCCCCCC)OC(=O)C(C)(C)CCCC(=O)OCOC(=O)N(CCc1cccc2ccc(OC)cc12)C(C)=O | A (>25%) | 9 |  |  |  |
| CCCCCCCC(=O)OCC(COC(=O)CCCCCCC)OC(=O)C(C)(C)CCCCCCC(C)(C)C(=O)OCOC(=O)N(CCc1cccc2ccc(OC)cc12)C(C)=O | A (>25%) | 6 | 1000 | 40** % |  |
| CCCCCCCC/C=C\CCCCCCCC(=O)OCC(COC(=O)CCCCCCC/C=C\CCCCCCCC)OC(=O)CC1(CC(=O)OCOC(=O)N(CCc2cccc3ccc(OC)cc23)C(C)=O)CCC1 | A (>25%) |  |  |  | levels of free agomelatine in human plasma supplemented with LPL [1]: high levels of free agomelatine |
| CCCCCCCC/C=C\CCCCCCCC(=O)OCC(COC(=O)CCCCCCC/C=C\CCCCCCCC)OC(=O)CC1(CC(=O)OCOC(=O)N(CCc2cccc3ccc(OC)cc23)C(C)=O)CCCC1 | B (5-25%) |  |  |  |  |
| CCCCCCCC(=O)OCC(COC(=O)CCCCCCC)OC(=O)C(C)(C)CCCCC(C)(C)C(=O)OCOC(=O)N(CCc1cccc2ccc(OC)cc12)C(C)=O | A (>25%) | 10 | 1350 | 54** % | AUC (plasma exposure of agomelatine) ([4]; oral): 0.156 µM·h |
| CCCCCCCC/C=C\CCCCCCCC(=O)OCC(COC(=O)CCCCCCC/C=C\CCCCCCCC)OC(=O)CC(C)(C)CC(=O)OC(C)OC(=O)N(CCc1cccc2ccc(OC)cc12)C(C)=O (stereo not shown) | C (1-4.99%) | 10 |  |  |  |
| COc1ccc2cccc(CCNC(C)=O)c2c1 |  |  |  |  | MT1 receptor agonism [5]: potent MT1 and MT2 receptor agonist; MT2 receptor agonism [6]: potent MT1 and MT2 receptor agonist; liver toxicity [7]: serious liver toxicity concerns; liver toxicity ([7]; listed as agomelatine): liver toxicity concerns in some patients receiving agomelatine; 5-HT2C antagonism [8]: 5-HT2C antagonist; 5-HT2C antagonism ([8]; listed as agomelatine): antagonist of 5-HT2c; agomelatine detected in the plasma ([4]; agomelatine alone administered orally): no agomelatine was detected in the plasma; AUC (plasma exposure of agomelatine) ([4]; oral): Not Detected; metabolized by cytochrome P450 isoenzymes in the liver [9]: up to 90%; % Dose in Lymph [3, 13]: 0.04* % |

Further lines, with some results ahead:

| Percentage of Agomelatine in Solution [1] | Monoacylglyceride Stability [2] | Approximate Fold Change Compared to AGM [3, 10] [fold] | % Dose in Lymph [3, 11] | SMILES | also measured |
| --- | --- | --- | --- | --- | --- |
| C (1-4.99%) |  |  |  | CCCCCCCC/C=C\CCCCCCCC(=O)OCC(COC(=O)CCCCCCC/C=C\CCCCCCCC)OC(=O)CC1(CC(=O)OCOC(=O)N(CCc2cccc3ccc(OC)cc23)C(C)=O)CCCCC1 |  |
| A (>25%) | −10 | 225 | 9** % | CCCCCCCC(=O)OCC(COC(=O)CCCCCCC)OC(=O)CC(C)(C)CCCCCCC(=O)OCOC(=O)N(CCc1cccc2ccc(OC)cc12)C(C)=O |  |
| A (>25%) | 8 | 550 | 22** % | CCCCCCCC(=O)OCC(COC(=O)CCCCCCC)OC(=O)CC(C)(C)CCCC(=O)OCOC(=O)N(CCc1cccc2ccc(OC)cc12)C(C)=O | AUC (plasma exposure of agomelatine) ([4]; oral): 0.194 µM·h |
| A (>25%) | 4 |  |  | CCCCCCCC(=O)OCC(COC(=O)CCCCCCC)OC(=O)C(C)(C)CCC(=O)OCOC(=O)N(CCc1cccc2ccc(OC)cc12)C(C)=O |  |
| A (>25%) | 10 |  |  | CCCCCCCC/C=C\CCCCCCCC(=O)OCC(COC(=O)CCCCCCC/C=C\CCCCCCCC)OC(=O)CC(C)(C)CC(=O)OCOC(=O)N(CCc1cccc2ccc(OC)cc12)C(C)=O | levels of free agomelatine in human plasma supplemented with LPL [1]: high levels of free agomelatine; Approximate Fold Change Compared to AGM [3, 12]: 1500 fold; % Dose in Lymph [3, 13]: 61* % |
| B (5-25%) | 8 |  |  | CCCCCCCC(=O)OCC(COC(=O)CCCCCCC)OC(=O)C(C)(C)CCCCCCCCC(C)(C)C(=O)OCOC(=O)N(CCc1cccc2ccc(OC)cc12)C(C)=O |  |
| A (>25%) | 10 |  |  | CCCCCCCC/C=C\CCCCCCCC(=O)OCC(COC(=O)CCCCCCC/C=C\CCCCCCCC)OC(=O)CC(C)(C)CCC(C)(C)CC(=O)OCOC(=O)N(CCc1cccc2ccc(OC)cc12)C(C)=O | AUC (plasma exposure of agomelatine), dose adjusted ([4]; oral, delivered dose 2.9x lower than standard, AUC dose adjusted to equivalent of 1 mg/kg agomelatine): 288* nmol*h/L |
| A (>25%) |  | 1075 | 43** % | CCCCCCCC(=O)OCC(COC(=O)CCCCCCC)OC(=O)CC(C)(C)CCC(C)(C)CC(=O)OCOC(=O)N(CCc1cccc2ccc(OC)cc12)C(C)=O |  |
